{"sequences": {"note": "Protein sequences, listed by entry. Tags and fused reporters are not part of them. Lines headed by an entry give the natural chain unless they say otherwise; changes in a name come on top.", "UniProt Q9QYN8": "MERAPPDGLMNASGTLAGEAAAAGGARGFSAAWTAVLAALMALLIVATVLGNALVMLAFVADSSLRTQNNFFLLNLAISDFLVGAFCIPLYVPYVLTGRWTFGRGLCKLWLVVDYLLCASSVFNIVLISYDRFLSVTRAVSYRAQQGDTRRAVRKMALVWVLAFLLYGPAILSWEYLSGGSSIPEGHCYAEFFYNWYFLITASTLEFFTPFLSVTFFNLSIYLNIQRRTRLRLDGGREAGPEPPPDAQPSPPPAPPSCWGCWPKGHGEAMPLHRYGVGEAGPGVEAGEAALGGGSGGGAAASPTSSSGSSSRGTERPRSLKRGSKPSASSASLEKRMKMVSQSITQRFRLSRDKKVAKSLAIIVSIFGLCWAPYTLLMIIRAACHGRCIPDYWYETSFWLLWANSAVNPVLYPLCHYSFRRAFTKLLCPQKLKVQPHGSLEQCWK"}, "source": "ChEMBL document CHEMBL1137580", "about": "“Synthesis, potency, and in vivo profiles of quinoline containing histamine H3 receptor inverse agonists” (J Med Chem, 2007)", "biological_target": "Histamine H3 receptor (Rattus norvegicus, UniProt Q9QYN8)", "experiment": "Agonist activity at rat histamine H3 receptor expressed in HEK239 cells assessed as reduction of basal [35S]GTP-gamma-S binding", "assay_type": "functional, cell-based", "note": "pEC50: −log10 of the molar value.", "data": [{"smiles": "C[C@@H]1CCCN1CCc1cc2cc(-c3ccc(C#N)cc3)ccc2o1", "values": [{"measurement": "pEC50", "result": 7.76}]}]}
